From ChEMBL document CHEMBL1799934, “Irreversible Nek2 kinase inhibitors with cellular activity” (J Med Chem, 2011)

Sequences of proteins named here, by UniProt entry; tags and fusion partners are left off.
UniProt P06493, whole entry: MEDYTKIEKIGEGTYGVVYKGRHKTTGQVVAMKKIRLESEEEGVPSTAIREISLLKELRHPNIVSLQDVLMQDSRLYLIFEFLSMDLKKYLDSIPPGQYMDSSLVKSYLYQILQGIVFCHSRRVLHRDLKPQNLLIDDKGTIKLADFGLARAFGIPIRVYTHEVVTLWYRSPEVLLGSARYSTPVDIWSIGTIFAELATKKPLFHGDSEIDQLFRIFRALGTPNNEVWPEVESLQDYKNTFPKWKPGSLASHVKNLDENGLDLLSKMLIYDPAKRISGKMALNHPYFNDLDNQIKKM

How the values were obtained:
A549 = experiment: Antimitotic activity in monastrol-arrested human A549 cells assessed as cells that exit mitosis arrest at 5 uM after 45 mins by immunofluorescence microscopic analysis; assay type: functional
Method in brief: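 A549 cells grown on poly-lysine coverslips for 24 h, arrested with 100 μM monastrol for 18 h, then exposed to 5 μM inhibitor with monastrol still present for 45 min. Cells fixed and immunostained for phospho-Ser10 histone H3, chromatin and tubulin. Percentage of cells that exited mitosis scored by microscopy, >75 cells counted per condition.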

[1] = target: T1, Serine/threonine-protein kinase Nek2 (Homo sapiens, UniProt P51955); experiment: Inhibition of human Nek2 in using [gamma-32P] ATP
T1 sequence (P51955 whole entry): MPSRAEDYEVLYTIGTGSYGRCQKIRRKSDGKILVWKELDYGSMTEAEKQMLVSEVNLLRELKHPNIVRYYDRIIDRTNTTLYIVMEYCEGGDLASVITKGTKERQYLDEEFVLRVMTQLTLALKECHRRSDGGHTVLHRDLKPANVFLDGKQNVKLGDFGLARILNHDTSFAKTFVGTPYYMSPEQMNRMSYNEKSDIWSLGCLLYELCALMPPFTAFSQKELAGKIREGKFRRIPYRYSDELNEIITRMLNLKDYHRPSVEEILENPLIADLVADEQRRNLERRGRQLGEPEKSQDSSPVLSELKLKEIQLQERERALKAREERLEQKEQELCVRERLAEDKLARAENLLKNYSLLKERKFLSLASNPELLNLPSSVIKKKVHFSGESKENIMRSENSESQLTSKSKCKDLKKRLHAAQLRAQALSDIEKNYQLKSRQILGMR

[2] = target: Cyclin-dependent kinase 1/cyclin B1 (Homo sapiens, UniProt P06493); experiment: Inhibition of human Cdk1/cyclinB using histone H1 as a substrate and [gamma-32P]ATP; assay type: protein-complex assay
Method in brief: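 Cdk1/cyclin B (2 nM) pre-incubated 30 min at room temperature with inhibitor in HEPES pH 7.5, MgCl2, EDTA, BSA, 3% DMSO, 38 μM ATP. Kinase reaction started with 0.2 mg/mL histone H1 plus 4 μCi [γ-32P]ATP and run 30 min at room temperature. Spotted onto nitrocellulose for radioactive read-out. IC50 is the mean of three determinations; the pre-incubation time was held fixed.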

IC50 [1]	IC50 [2]	Structure (SMILES)	Activity (A549)
–	–	C#CC(=O)Nc1ccc2c(c1)/C(=C/c1[nH]c(CC)nc1C)C(=O)N2	4%
4.9 µM	> 20 µM	CCc1nc(C)c(/C=C2\C(=O)N(C)c3ccc(C(=O)CCl)cc32)[nH]1.Cl	–
